Reference: article PMC7570497, “Design, Synthesis and Functional Analysis of Cyclic Opioid Peptides with Dmt-Tic Pharmacophore” (Molecules, 2020)

By UniProt entry, the sequences of proteins in these tests, tags left out.
UniProt P35372, whole entry: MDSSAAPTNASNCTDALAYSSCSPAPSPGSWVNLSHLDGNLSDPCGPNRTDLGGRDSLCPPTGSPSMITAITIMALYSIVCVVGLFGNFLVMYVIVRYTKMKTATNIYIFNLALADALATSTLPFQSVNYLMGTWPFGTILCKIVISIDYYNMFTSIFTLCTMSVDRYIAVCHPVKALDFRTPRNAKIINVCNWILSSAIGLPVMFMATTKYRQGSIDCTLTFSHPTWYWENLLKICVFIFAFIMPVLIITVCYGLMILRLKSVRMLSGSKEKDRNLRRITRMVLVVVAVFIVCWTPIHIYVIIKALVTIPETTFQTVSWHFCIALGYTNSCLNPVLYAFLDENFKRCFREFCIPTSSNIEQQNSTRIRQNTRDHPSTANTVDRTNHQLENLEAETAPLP

Target: T1, human MOR (Homo sapiens, UniProt P35372)
T1 construct: expressed in transfected cells; host or cells: CHO cells (gift from Prof. Girolamo Calo, Ferrara University)
Assay: Calcium mobilization assay, agonist mode, MOR
Type: cell-based

Compound | EC50 | MOR α ± SEM (efficacy, intrinsic activity) (CHO cells co-expressing human MOR and Gαqi5, ratio of peptide Emax to Emax of dermorphin, inactive = inactive up to 10 μM, n ≥ 5)
C[C@@H](NC(=O)[C@@H](N)Cc1ccc(O)cc1)C(=O)N[C@@H](Cc1ccccc1)C(=O)NCC(=O)N[C@@H](Cc1ccc(O)cc1)C(=O)N1CCC[C@H]1C(=O)N[C@@H](CO)C(N)=O [dermorphin, reference compound] | 2.19 nM | –
CC[C@H](C)[C@H](NC(=O)[C@H](CCCNC(=N)N)NC(=O)[C@H](CCCNC(=N)N)NC(=O)[C@H](CC(C)C)NC(=O)[C@H](Cc1ccccc1)NC(=O)CNC(=O)CNC(=O)[C@@H](N)Cc1ccc(O)cc1)C(=O)N[C@@H](CCCNC(=N)N)C(=O)N1CCC[C@H]1C(=O)N[C@@H](CCCCN)C(=O)N[C@@H](CC(C)C)C(=O)N[C@@H](CCCCN)C(=O)N[C@@H](Cc1c[nH]c2ccccc12)C(=O)N[C@@H](CC(=O)O)C(=O)N[C@@H](CC(N)=O)C(=O)N[C@@H](CCC(N)=O)C(=O)O [dynorphin A, reference compound] | – | 0.83 ± 0.10
